Test results taken from ChEMBL document CHEMBL5543101, “Identification of 3-aryl-5-methyl-isoxazole-4-carboxamide derivatives and analogs as novel HIF-2α agonists through docking-based virtual screening and structural modification” (Eur J Med Chem, 2024).

Protein sequences, listed by entry. Tags and fused reporters are not part of them. Lines headed by an entry give the natural chain unless they say otherwise; changes in a name come on top.
UniProt Q99814: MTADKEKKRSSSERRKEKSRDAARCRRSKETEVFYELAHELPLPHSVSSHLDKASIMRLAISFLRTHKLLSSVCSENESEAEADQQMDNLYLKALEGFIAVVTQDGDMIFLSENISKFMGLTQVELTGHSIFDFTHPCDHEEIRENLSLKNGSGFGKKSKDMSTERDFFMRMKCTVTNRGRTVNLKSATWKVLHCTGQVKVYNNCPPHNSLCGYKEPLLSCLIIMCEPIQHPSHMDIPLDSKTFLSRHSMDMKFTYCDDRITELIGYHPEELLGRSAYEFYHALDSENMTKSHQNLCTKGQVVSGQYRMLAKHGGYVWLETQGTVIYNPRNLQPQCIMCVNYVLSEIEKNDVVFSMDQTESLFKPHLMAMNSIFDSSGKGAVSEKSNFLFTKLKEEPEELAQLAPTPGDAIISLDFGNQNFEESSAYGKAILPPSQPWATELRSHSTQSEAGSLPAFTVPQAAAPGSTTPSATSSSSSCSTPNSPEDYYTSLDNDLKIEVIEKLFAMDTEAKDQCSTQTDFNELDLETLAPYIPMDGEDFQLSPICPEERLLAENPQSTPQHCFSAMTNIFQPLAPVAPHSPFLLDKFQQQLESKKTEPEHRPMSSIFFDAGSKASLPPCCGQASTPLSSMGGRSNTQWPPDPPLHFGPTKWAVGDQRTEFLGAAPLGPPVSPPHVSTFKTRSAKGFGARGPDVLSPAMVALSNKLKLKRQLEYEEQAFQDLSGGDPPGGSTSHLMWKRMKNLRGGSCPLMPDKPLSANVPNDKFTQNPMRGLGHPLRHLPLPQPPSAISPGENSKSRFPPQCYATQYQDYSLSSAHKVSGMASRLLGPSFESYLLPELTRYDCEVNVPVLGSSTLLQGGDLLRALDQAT

Assays:
[1] = target: Endothelial PAS domain-containing protein 1 (Homo sapiens, UniProt Q99814); test: Agonist activity at HIF-2alpha in human 786-0 cells assessed as increase in VEGF secretion at 2 uM incubated for 20 hrs by ELISA relative to control; assay type: cell-based; conditions: filed as agonist
[2] = Effect on EPO mRNA expression in human 786-0 cells assessed as fold change at 10 uM incubated for 24 hrs by RT-PCR analysis (reference value: 0.98 +/- 0.14); assay type: functional

| Structure (SMILES) | Activity [1] [%] | fold change (FC) [2] |
| --- | --- | --- |
| O=S1(=O)N=C(Nc2cc(C(F)(F)F)cc(C(F)(F)F)c2)c2ccccc21 | 113 | – |
| O=C(Nc1cccc(C(F)(F)F)c1)c1cn[nH]c1-c1ccccc1Cl | – | 2.03 |
